Experimental data reported in PubChem BioAssay (NCI).
Some results for these compounds are left out of this collection, so the calls shown say nothing about other tests.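 Step 1: Grow cells in 96-well plates. Step 2: Expose to compound for 48 hours at 5 concentrations. Step 3: Interpolate endpoints linearly; if unreached, use highest concentration. At the GI50, growth is halved.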

Legend:
Test in all cases: NCI-60 cell line screen, 48 h; in the data active = GI50 below about 0.43 µM; inactive = the rest
786-0 renal = system: 786-0 renal
A498 renal = system: A498 renal
A549 NSCLC = system: A549 NSCLC
ACHN renal = system: ACHN renal
BT-549 breast = system: BT-549 breast
CAKI-1 renal = system: CAKI-1 renal
CCRF-CEM leukemia = system: CCRF-CEM leukemia
COLO 205 colon = system: COLO 205 colon
DU-145 prostate = system: DU-145 prostate
EKVX NSCLC = system: EKVX NSCLC
HCT-116 colon = system: HCT-116 colon
HCT-15 colon = system: HCT-15 colon
HL-60(TB) leukemia = system: HL-60(TB) leukemia
HOP-62 NSCLC = system: HOP-62 NSCLC
HOP-92 NSCLC = system: HOP-92 NSCLC
HS 578T breast = system: HS 578T breast
HT29 colon = system: HT29 colon
IGROV1 ovarian = system: IGROV1 ovarian
K-562 leukemia = system: K-562 leukemia
LOX IMVI melanoma = system: LOX IMVI melanoma
M14 melanoma = system: M14 melanoma
MALME-3M melanoma = system: MALME-3M melanoma
MCF7 breast = system: MCF7 breast
MDA-MB-231 breast = system: MDA-MB-231 breast
MDA-MB-435 = system: MDA-MB-435
MDA-N = system: MDA-N
MOLT-4 leukemia = system: MOLT-4 leukemia
NCI-H226 lung = system: NCI-H226 lung
NCI-H23 lung = system: NCI-H23 lung
NCI-H322M lung = system: NCI-H322M lung
NCI-H522 lung = system: NCI-H522 lung
NCI/ADR-RES ovarian = system: NCI/ADR-RES ovarian
OVCAR-3 ovarian = system: OVCAR-3 ovarian
OVCAR-4 ovarian = system: OVCAR-4 ovarian
OVCAR-5 ovarian = system: OVCAR-5 ovarian
OVCAR-8 ovarian = system: OVCAR-8 ovarian
PC-3 prostate = system: PC-3 prostate
RPMI-8226 leukemia = system: RPMI-8226 leukemia
RXF 393 renal = system: RXF 393 renal
SF-268 CNS = system: SF-268 CNS
SF-295 CNS = system: SF-295 CNS
SF-539 CNS = system: SF-539 CNS
SK-MEL-2 melanoma = system: SK-MEL-2 melanoma
SK-MEL-28 melanoma = system: SK-MEL-28 melanoma
SK-MEL-5 melanoma = system: SK-MEL-5 melanoma
SK-OV-3 ovarian = system: SK-OV-3 ovarian
SN12C renal = system: SN12C renal
SNB-19 CNS = system: SNB-19 CNS
SNB-75 CNS = system: SNB-75 CNS
SR leukemia = system: SR leukemia
T-47D breast = system: T-47D breast
TK-10 renal = system: TK-10 renal
U251 CNS = system: U251 CNS
UACC-257 melanoma = system: UACC-257 melanoma
UACC-62 melanoma = system: UACC-62 melanoma
UO-31 renal = system: UO-31 renal

Measured: GI50

O=C(OCCN1C2CCCC1CCC2)C(O)(c1ccccc1)c1ccccc1
inactive: 786-0 renal > 100 µM | A498 renal > 100 µM | A549 NSCLC > 100 µM | ACHN renal > 100 µM | BT-549 breast > 100 µM | CAKI-1 renal > 100 µM | CCRF-CEM leukemia > 100 µM | COLO 205 colon > 100 µM | DU-145 prostate > 100 µM | EKVX NSCLC > 100 µM | HCT-116 colon > 100 µM | HCT-15 colon > 100 µM | HL-60(TB) leukemia > 100 µM | HOP-62 NSCLC > 100 µM | HOP-92 NSCLC > 100 µM | HS 578T breast > 100 µM | HT29 colon > 100 µM | IGROV1 ovarian > 100 µM | K-562 leukemia > 100 µM | LOX IMVI melanoma > 100 µM | M14 melanoma > 100 µM | MALME-3M melanoma > 100 µM | MCF7 breast > 100 µM | MDA-MB-231 breast > 100 µM | MDA-MB-435 = > 100 µM | MDA-N > 100 µM | MOLT-4 leukemia > 100 µM | NCI-H226 lung > 100 µM | NCI-H23 lung > 100 µM | NCI-H322M lung > 100 µM | NCI-H522 lung > 100 µM | NCI/ADR-RES ovarian > 100 µM | OVCAR-3 ovarian > 100 µM | OVCAR-4 ovarian > 100 µM | OVCAR-5 ovarian > 100 µM | OVCAR-8 ovarian > 100 µM | PC-3 prostate > 100 µM | RPMI-8226 leukemia > 100 µM | RXF 393 renal > 100 µM | SF-268 CNS > 100 µM | SF-295 CNS > 100 µM | SF-539 CNS > 100 µM | SK-MEL-2 melanoma > 100 µM | SK-MEL-28 melanoma > 100 µM | SK-MEL-5 melanoma > 100 µM | SK-OV-3 ovarian > 100 µM | SN12C renal > 100 µM | SNB-19 CNS > 100 µM | SNB-75 CNS > 100 µM | SR leukemia > 100 µM | T-47D breast > 100 µM | TK-10 renal > 100 µM | U251 CNS > 100 µM | UACC-257 melanoma > 100 µM | UACC-62 melanoma > 100 µM | UO-31 renal > 100 µM
